{
  "sequences": {"note": "Sequences of proteins named here, by UniProt entry; tags and fusion partners are left off. A change or cut given only in a name is not applied to a line headed by its entry.", "UniProt Q8IWQ3": "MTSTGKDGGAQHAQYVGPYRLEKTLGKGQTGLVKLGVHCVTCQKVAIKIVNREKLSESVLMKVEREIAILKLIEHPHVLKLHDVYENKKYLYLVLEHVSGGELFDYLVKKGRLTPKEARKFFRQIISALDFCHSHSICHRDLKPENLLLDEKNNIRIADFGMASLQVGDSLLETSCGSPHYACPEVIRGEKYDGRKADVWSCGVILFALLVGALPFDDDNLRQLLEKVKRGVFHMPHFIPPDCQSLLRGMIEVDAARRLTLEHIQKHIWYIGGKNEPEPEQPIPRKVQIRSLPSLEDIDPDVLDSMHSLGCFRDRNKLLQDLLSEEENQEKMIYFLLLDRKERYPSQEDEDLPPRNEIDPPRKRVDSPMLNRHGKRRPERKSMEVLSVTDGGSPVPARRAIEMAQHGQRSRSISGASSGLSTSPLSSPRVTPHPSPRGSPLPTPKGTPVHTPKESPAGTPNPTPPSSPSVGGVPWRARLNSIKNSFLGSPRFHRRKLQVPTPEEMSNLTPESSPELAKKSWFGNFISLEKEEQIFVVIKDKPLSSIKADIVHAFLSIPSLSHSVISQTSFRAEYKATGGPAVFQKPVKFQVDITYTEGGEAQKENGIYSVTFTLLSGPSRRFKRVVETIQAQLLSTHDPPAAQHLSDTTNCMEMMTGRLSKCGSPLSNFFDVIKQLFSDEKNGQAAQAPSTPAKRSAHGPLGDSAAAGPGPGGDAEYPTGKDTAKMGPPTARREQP", "UniProt P51617, whole entry, looked up": "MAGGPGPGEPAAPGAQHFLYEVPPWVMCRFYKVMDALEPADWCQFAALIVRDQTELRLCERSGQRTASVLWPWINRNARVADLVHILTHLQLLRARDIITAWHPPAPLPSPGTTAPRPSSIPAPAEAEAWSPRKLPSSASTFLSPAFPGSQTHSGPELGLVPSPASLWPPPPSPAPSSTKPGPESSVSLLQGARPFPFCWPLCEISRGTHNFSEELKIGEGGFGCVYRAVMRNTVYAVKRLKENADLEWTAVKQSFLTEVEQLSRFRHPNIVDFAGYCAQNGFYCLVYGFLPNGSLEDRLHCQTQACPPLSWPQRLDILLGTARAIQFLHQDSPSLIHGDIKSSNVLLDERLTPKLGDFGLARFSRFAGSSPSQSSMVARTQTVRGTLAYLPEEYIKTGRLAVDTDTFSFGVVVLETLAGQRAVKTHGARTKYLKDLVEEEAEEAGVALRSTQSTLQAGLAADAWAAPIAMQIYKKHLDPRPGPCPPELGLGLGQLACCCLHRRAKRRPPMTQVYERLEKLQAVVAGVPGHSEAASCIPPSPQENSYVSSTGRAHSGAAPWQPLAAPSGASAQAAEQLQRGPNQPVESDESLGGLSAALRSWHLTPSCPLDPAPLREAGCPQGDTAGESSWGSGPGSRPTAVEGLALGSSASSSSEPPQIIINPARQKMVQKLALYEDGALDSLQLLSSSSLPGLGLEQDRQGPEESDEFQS", "UniProt O43353, whole entry, looked up": "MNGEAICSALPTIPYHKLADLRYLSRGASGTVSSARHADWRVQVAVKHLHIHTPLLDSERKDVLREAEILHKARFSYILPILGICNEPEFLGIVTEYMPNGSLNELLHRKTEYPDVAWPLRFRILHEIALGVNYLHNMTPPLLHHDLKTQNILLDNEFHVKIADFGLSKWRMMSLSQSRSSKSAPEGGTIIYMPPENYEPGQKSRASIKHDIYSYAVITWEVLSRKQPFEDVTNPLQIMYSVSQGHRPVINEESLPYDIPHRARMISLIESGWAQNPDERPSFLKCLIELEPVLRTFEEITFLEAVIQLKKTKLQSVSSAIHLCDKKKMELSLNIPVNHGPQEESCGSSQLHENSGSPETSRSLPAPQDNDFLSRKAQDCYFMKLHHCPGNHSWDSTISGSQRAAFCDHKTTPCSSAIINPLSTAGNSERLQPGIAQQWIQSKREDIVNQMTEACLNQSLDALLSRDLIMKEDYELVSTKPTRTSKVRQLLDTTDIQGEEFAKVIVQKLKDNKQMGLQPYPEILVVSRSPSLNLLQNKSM", "UniProt Q8NE63": "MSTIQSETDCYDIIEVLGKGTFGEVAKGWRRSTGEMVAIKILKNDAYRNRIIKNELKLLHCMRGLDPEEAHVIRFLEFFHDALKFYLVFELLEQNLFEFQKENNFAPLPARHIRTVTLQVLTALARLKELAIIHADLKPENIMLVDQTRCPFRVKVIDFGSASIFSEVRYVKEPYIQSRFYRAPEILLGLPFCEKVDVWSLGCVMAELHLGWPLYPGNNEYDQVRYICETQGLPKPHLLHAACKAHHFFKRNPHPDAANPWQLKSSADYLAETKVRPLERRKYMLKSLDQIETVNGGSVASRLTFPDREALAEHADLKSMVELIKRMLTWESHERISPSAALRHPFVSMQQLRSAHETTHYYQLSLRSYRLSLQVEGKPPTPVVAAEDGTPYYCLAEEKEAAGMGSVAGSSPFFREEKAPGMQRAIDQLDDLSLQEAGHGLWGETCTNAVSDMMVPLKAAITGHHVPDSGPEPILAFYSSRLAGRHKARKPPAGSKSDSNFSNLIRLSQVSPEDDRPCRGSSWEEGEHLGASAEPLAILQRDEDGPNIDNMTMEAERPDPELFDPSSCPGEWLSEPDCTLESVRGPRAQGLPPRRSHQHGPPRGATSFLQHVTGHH", "UniProt Q9H2K8": "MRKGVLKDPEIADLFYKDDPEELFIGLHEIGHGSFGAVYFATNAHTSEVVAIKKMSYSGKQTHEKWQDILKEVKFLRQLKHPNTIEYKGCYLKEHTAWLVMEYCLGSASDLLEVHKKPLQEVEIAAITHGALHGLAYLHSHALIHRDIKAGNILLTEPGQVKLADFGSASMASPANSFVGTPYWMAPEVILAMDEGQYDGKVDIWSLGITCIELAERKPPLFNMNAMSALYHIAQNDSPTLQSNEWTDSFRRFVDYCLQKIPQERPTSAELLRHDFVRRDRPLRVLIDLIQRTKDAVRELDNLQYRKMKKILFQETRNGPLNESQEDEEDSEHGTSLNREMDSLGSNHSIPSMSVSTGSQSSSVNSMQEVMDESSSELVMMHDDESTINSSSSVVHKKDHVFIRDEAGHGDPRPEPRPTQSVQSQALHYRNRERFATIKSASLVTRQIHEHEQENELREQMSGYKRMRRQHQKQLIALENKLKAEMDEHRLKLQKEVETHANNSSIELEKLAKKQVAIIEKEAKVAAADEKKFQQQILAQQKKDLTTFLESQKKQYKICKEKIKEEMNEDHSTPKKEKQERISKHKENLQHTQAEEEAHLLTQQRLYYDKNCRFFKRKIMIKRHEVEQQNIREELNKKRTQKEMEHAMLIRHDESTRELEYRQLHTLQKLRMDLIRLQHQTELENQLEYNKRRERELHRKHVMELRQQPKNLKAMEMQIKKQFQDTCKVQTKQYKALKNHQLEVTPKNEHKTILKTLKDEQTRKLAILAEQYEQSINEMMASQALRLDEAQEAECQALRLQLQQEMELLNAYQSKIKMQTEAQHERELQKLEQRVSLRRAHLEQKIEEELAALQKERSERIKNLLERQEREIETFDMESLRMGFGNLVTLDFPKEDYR", "UniProt Q13237": "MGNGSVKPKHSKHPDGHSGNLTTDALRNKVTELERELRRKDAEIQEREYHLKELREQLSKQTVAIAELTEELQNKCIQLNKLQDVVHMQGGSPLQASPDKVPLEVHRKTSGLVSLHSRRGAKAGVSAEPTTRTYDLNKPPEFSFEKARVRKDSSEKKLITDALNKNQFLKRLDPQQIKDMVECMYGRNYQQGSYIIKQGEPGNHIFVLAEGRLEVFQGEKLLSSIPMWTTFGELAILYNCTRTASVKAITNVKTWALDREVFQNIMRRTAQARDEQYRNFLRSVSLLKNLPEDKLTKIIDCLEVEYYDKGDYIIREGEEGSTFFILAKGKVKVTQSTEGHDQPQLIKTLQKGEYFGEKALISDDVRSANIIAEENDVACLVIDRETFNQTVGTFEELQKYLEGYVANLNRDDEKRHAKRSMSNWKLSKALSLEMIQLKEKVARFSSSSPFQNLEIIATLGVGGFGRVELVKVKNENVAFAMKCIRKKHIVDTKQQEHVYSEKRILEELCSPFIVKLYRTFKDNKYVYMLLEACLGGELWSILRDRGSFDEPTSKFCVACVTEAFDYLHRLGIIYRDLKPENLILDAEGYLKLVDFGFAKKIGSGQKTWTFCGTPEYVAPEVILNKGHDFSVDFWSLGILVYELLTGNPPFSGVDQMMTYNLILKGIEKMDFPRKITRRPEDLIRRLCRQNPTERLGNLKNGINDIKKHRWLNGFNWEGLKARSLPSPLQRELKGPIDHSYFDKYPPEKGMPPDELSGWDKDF", "UniProt Q02779": "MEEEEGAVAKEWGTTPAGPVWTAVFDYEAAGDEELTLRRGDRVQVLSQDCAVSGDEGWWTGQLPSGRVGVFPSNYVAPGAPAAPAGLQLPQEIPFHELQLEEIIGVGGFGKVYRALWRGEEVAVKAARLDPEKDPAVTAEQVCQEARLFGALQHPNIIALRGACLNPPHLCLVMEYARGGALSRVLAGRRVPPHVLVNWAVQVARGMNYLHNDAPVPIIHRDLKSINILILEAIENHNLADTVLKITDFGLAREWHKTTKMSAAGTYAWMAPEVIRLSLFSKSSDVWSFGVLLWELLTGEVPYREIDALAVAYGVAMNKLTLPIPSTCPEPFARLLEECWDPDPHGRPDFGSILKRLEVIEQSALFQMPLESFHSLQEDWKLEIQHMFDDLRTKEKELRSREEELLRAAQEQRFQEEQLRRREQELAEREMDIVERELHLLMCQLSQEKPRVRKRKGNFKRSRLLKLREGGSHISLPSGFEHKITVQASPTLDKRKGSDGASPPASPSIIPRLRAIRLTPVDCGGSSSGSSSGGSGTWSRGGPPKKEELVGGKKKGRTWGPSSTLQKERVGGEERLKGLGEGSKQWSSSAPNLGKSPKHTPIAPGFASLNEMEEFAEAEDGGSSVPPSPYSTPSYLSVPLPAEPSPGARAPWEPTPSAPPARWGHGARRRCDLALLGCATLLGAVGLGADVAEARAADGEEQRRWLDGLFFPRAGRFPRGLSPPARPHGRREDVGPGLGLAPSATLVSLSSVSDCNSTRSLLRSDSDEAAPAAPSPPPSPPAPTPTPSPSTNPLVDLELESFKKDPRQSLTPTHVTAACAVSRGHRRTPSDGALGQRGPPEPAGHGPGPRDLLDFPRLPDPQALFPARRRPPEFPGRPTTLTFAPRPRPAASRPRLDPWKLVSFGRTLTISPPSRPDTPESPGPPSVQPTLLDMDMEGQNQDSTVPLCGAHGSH", "UniProt O43781": "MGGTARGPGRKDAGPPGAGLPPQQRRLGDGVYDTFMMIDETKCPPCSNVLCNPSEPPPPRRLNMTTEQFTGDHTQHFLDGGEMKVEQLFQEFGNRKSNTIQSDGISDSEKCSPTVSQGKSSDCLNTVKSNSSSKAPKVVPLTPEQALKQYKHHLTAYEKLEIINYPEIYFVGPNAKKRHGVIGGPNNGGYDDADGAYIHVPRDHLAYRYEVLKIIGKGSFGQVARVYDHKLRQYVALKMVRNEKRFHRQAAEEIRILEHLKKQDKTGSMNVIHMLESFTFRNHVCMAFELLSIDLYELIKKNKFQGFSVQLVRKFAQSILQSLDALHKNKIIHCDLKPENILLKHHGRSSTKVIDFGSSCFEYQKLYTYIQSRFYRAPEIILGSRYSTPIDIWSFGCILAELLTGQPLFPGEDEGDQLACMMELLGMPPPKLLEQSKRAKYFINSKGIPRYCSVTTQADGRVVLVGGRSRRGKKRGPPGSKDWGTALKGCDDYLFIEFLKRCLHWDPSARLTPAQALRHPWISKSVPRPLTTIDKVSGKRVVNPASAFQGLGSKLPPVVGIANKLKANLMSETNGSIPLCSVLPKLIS", "UniProt Q9HBY8": "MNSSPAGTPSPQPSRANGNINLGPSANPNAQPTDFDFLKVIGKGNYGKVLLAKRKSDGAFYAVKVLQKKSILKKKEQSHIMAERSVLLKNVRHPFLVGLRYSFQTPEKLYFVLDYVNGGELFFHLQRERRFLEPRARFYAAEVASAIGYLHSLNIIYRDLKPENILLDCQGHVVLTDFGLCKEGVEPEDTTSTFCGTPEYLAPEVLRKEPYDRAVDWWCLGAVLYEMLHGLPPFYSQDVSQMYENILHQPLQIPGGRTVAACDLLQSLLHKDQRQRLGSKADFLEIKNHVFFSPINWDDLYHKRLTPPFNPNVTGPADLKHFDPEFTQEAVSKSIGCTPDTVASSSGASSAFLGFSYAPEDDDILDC", "UniProt P27361, whole entry, looked up": "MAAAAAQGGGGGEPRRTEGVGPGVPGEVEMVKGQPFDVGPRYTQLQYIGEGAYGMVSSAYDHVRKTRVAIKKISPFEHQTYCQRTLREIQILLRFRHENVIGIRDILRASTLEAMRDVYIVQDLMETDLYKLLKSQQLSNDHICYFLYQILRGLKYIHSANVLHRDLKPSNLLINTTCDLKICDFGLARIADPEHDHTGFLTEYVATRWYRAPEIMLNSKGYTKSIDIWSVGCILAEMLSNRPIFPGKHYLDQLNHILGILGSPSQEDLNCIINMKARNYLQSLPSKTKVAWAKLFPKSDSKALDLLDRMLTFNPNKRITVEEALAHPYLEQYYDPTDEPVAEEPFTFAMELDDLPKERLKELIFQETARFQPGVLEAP"},
  "source": "the kinase profiling compilation of Christmann-Franck et al. (2016)",
  "assay_in_all_cases": "radiometric filter-binding kinase assay, Kinase HotSpot",
  "conditions_in_all_cases": "compound 0.5 µM; ATP 10 µM",
  "key": {"MAP4K4 (human)": {"biological_target": "MAP4K4 (human) (UniProt O95819)"}, "CSNK1D (human)": {"biological_target": "CSNK1D (human) (UniProt P48730)"}, "CAMK4 (human)": {"biological_target": "CAMK4 (human) (UniProt Q16566)"}, "BRSK2 (human)": {"biological_target": "BRSK2 (human) (UniProt Q8IWQ3)"}, "GSK3B (human)": {"biological_target": "GSK3B (human) (UniProt P49841)"}, "IRAK1 (human)": {"biological_target": "IRAK1 (human) (UniProt P51617)"}, "EPHA3 (human)": {"biological_target": "EPHA3 (human) (UniProt P29320)"}, "CLK2 (human)": {"biological_target": "CLK2 (human) (UniProt P49760)"}, "RPS6KB2 (human)": {"biological_target": "RPS6KB2 (human) (UniProt Q9UBS0)"}, "ROS1 (human)": {"biological_target": "ROS1 (human) (UniProt P08922)"}, "MYLK2 (human)": {"biological_target": "MYLK2 (human) (UniProt Q9H1R3)"}, "IGF1R (human)": {"biological_target": "IGF1R (human) (UniProt P08069)"}, "CHEK1 (human)": {"biological_target": "CHEK1 (human) (UniProt O14757)"}, "RIPK2 (human)": {"biological_target": "RIPK2 (human) (UniProt O43353)"}, "RPS6KA6 KD1 KD2 (human)": {"biological_target": "RPS6KA6 KD1 KD2 (human) (UniProt Q9UK32)"}, "HIPK4 (human)": {"biological_target": "HIPK4 (human) (UniProt Q8NE63)"}, "EPHB4 (human)": {"biological_target": "EPHB4 (human) (UniProt P54760)"}, "RPS6KA5 KD2 (human)": {"biological_target": "RPS6KA5 KD2 (human) (UniProt O75582)"}, "MARK1 (human)": {"biological_target": "MARK1 (human) (UniProt Q9P0L2)"}, "EPHB3 (human)": {"biological_target": "EPHB3 (human) (UniProt P54753)"}, "MAPKAPK5 (human)": {"biological_target": "MAPKAPK5 (human) (UniProt Q8IW41)"}, "EPHA2 (human)": {"biological_target": "EPHA2 (human) (UniProt P29317)"}, "TAOK3 (human)": {"biological_target": "TAOK3 (human) (UniProt Q9H2K8)"}, "PRKG2 (human)": {"biological_target": "PRKG2 (human) (UniProt Q13237)"}, "MAP3K10 (human)": {"biological_target": "MAP3K10 (human) (UniProt Q02779)"}, "KDR (human)": {"biological_target": "KDR (human) (UniProt P35968)"}, "DYRK3 (human)": {"biological_target": "DYRK3 (human) (UniProt O43781)"}, "TTK (human)": {"biological_target": "TTK (human) (UniProt P33981)"}, "BRAF (human)": {"biological_target": "BRAF (human) (UniProt P15056)"}, "PTK2B (human)": {"biological_target": "PTK2B (human) (UniProt Q14289)"}, "MINK1 (human)": {"biological_target": "MINK1 (human) (UniProt Q8N4C8)"}, "SGK2 (human)": {"biological_target": "SGK2 (human) (UniProt Q9HBY8)"}, "MYO3B (human)": {"biological_target": "MYO3B (human) (UniProt Q8WXR4)"}, "CSNK2A1 (human)": {"biological_target": "CSNK2A1 (human) (UniProt P68400)"}, "MKNK2 (human)": {"biological_target": "MKNK2 (human) (UniProt Q9HBH9)"}, "PRKD1 (human)": {"biological_target": "PRKD1 (human) (UniProt Q15139)"}, "FES (human)": {"biological_target": "FES (human) (UniProt P07332)"}, "ULK2 (human)": {"biological_target": "ULK2 (human) (UniProt Q8IYT8)"}, "HIPK1 (human)": {"biological_target": "HIPK1 (human) (UniProt Q86Z02)"}, "DAPK2 (human)": {"biological_target": "DAPK2 (human) (UniProt Q9UIK4)"}, "CAMK2D (human)": {"biological_target": "CAMK2D (human) (UniProt Q13557)"}, "MAPK3 (human)": {"biological_target": "MAPK3 (human) (UniProt P27361)"}},
  "data": [
    {"smiles": "O=C1Nc2ccc3ncsc3c2/C1=C/c1c[nH]cn1", "values": [
      {"measurement": "residual activity", "setting": "MAP4K4 (human)", "value": 5.36, "unit": "%"},
      {"measurement": "residual activity", "setting": "CSNK1D (human)", "value": 42.8, "unit": "%"},
      {"measurement": "residual activity", "setting": "CAMK4 (human)", "value": 101, "unit": "%"},
      {"measurement": "residual activity", "setting": "BRSK2 (human)", "value": 10.2, "unit": "%"},
      {"measurement": "residual activity", "setting": "GSK3B (human)", "value": 6.34, "unit": "%"},
      {"measurement": "residual activity", "setting": "IRAK1 (human)", "value": 52.5, "unit": "%"},
      {"measurement": "residual activity", "setting": "EPHA3 (human)", "value": 77.1, "unit": "%"},
      {"measurement": "residual activity", "setting": "CLK2 (human)", "value": 9.96, "unit": "%"},
      {"measurement": "residual activity", "setting": "RPS6KB2 (human)", "value": 95.1, "unit": "%"},
      {"measurement": "residual activity", "setting": "ROS1 (human)", "value": 73.6, "unit": "%"},
      {"measurement": "residual activity", "setting": "MYLK2 (human)", "value": 12, "unit": "%"},
      {"measurement": "residual activity", "setting": "IGF1R (human)", "value": 97.5, "unit": "%"},
      {"measurement": "residual activity", "setting": "CHEK1 (human)", "value": 27.1, "unit": "%"},
      {"measurement": "residual activity", "setting": "RIPK2 (human)", "value": 85, "unit": "%"},
      {"measurement": "residual activity", "setting": "RPS6KA6 KD1 KD2 (human)", "value": 8.68, "unit": "%"},
      {"measurement": "residual activity", "setting": "HIPK4 (human)", "value": 87.8, "unit": "%"},
      {"measurement": "residual activity", "setting": "EPHB4 (human)", "value": 90.6, "unit": "%"},
      {"measurement": "residual activity", "setting": "RPS6KA5 KD2 (human)", "value": 34.7, "unit": "%"},
      {"measurement": "residual activity", "setting": "MARK1 (human)", "value": 20, "unit": "%"},
      {"measurement": "residual activity", "setting": "EPHB3 (human)", "value": 86, "unit": "%"},
      {"measurement": "residual activity", "setting": "MAPKAPK5 (human)", "value": 74.4, "unit": "%"},
      {"measurement": "residual activity", "setting": "EPHA2 (human)", "value": 78.8, "unit": "%"},
      {"measurement": "residual activity", "setting": "TAOK3 (human)", "value": 18.6, "unit": "%"},
      {"measurement": "residual activity", "setting": "PRKG2 (human)", "value": 3, "unit": "%"},
      {"measurement": "residual activity", "setting": "MAP3K10 (human)", "value": 65.4, "unit": "%"},
      {"measurement": "residual activity", "setting": "KDR (human)", "value": 34.5, "unit": "%"},
      {"measurement": "residual activity", "setting": "DYRK3 (human)", "value": 39.2, "unit": "%"},
      {"measurement": "residual activity", "setting": "TTK (human)", "value": 31.1, "unit": "%"},
      {"measurement": "residual activity", "setting": "BRAF (human)", "value": 100, "unit": "%"},
      {"measurement": "residual activity", "setting": "PTK2B (human)", "value": 88, "unit": "%"},
      {"measurement": "residual activity", "setting": "MINK1 (human)", "value": 24.4, "unit": "%"},
      {"measurement": "residual activity", "setting": "SGK2 (human)", "value": 25, "unit": "%"},
      {"measurement": "residual activity", "setting": "MYO3B (human)", "value": 30.9, "unit": "%"},
      {"measurement": "residual activity", "setting": "CSNK2A1 (human)", "value": 48.2, "unit": "%"},
      {"measurement": "residual activity", "setting": "MKNK2 (human)", "value": 17.6, "unit": "%"},
      {"measurement": "residual activity", "setting": "PRKD1 (human)", "value": 4.14, "unit": "%"},
      {"measurement": "residual activity", "setting": "FES (human)", "value": 73.5, "unit": "%"},
      {"measurement": "residual activity", "setting": "ULK2 (human)", "value": 51.5, "unit": "%"},
      {"measurement": "residual activity", "setting": "HIPK1 (human)", "value": 103, "unit": "%"},
      {"measurement": "residual activity", "setting": "DAPK2 (human)", "value": 125, "unit": "%"},
      {"measurement": "residual activity", "setting": "CAMK2D (human)", "value": 53.1, "unit": "%"},
      {"measurement": "residual activity", "setting": "MAPK3 (human)", "value": 11.6, "unit": "%"}
    ]}
  ]
}
